Assays:
[1] = target: T1, HA-α2AAR (Mus musculus, UniProt Q01338); conditions: 1 µM, 30 min
[2] = target: α2AAR/Arr3 interaction (Mus musculus, UniProt Q01338); conditions: 1 µM, live HEK 293 cells
[3] = target: T1, HA-α2AAR; conditions: 1 µM, WT MEF cells

The chains behind the UniProt entries cited, without tags or fusion partners.
UniProt Q01338, whole entry: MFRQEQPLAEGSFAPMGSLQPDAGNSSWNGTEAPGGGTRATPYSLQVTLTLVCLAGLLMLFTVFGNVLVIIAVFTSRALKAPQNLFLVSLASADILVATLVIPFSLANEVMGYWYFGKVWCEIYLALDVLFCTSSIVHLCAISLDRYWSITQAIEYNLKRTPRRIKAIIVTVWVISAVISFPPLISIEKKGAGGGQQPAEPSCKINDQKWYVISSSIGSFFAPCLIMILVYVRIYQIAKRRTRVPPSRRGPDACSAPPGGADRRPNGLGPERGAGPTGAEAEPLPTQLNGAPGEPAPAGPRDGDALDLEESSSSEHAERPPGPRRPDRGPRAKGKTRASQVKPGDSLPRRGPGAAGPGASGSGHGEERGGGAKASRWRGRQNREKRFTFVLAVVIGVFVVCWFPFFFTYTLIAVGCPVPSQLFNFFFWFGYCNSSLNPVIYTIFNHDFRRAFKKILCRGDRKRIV

SMILES: OCCN1CCN(CCCN2c3ccccc3Sc3ccc(C(F)(F)F)cc32)CC1 [Fluphenazine, fluphenazine]
- α2AAR endocytosis (intracellular punctae) [1]: failed to induce detectable endocytosis
- α2AAR/Arr3 interaction (FLIM-FRET efficiency) [2]: robust α2AAR/Arr3 interaction
- receptor loss from the cell surface [3]: failed to induce detectable endocytosis
